# scFv variants of Ab-91 (heavy chain) against a SARS-CoV-2 spike peptide

Data: MIT Lincoln Laboratory AlphaSeq set, Engelhart et al. 2022, doi:10.1038/s41597-022-01779-4, as distributed in FLAb.

Binding partner: SARS-CoV-2 spike HR2 peptide, sequence PDVDLGDISGINAS.

The variants keep the light chain, the linker and the frameworks of Ab-91 (scFv order VL, the linker GGGGSGGGGSGGGGS, VH).
VL: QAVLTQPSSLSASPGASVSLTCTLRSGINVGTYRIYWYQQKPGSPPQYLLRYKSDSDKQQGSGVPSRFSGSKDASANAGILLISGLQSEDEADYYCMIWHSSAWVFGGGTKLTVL
VH: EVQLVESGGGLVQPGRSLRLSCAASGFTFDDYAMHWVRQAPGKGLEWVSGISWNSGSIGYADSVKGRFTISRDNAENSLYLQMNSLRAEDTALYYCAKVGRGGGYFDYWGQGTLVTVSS

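Phage display of a naive human antibody library on the peptide gave the parent. AAYL51 was designed without a model: most single CDR substitutions and a random sample of double and triple ones. Affinity was read by AlphaSeq, a pooled yeast mating assay with surface-displayed partners. Mating (16 h, 30 °C) was followed by selection of diploids and sequencing of their barcodes. A regression on co-assayed BCL2-family reference pairs converts the normalised counts of each replicate to an apparent Kd. Each pool was mated in three replicate cultures.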

Variants are written as CDR1, CDR2 and CDR3 of the heavy chain (limits as in the source). Parent: GFTFDDYAMH, GISWNSGSIGYADSVK, VGRGGGYFDY.
All variants listed here change Y32 of the VH, counted from its first residue.
Scale: log10 of Kd in nM, estimated from mating counts; low values are strong binders.
Averages over replicates are reported, and they cover detected replicates only.
A pair that was not seen in that replicate is written "nd"; this usually means weak binding, but a binder can also be missed.
Entries are sorted by rising average, undetected variants last.
Three control strains display no target. For library AAYL51, 21% of the pairings with them gave a signal, with a median of 4.54 and one signal in twenty below 3.26, so weak values seen in few replicates may be background.
In this assay the parent's reference entry averaged 1.86; its copy inside this library read 0.88.

For GFTFDDMAMH | GISWNSGSIGYASSVK | VGRGGGYFDY, the assay gave nd, 1.59, 0.54 (mean 1.07). The variant GFTFDDGAMH | GISWNSGSSGYADSVV | VGRGGGYFDY gave 2.20, 2.61, 2.06 (mean 2.29). The variant GFTFDDVAMH | GISWNSSSIGYADSVK | VGRGGGYFDN showed nd, 2.51, nd. For GFVFDDNAMH | GISWNSGSIGYADSVQ | VGRGGGYFDY, the assay gave 2.68, 2.63, 2.36 (mean 2.56). The variant GQTFDDAAMH | GISWNSGSIGYADSVK | VGRGGGYFDM showed 2.98, 2.91, 3.10 (mean 2.99). The variant GFTFDDDAMH | WISWNSGSIGYADSVK | VCRGGGYFDY showed nd, 3.80, nd. With GFTFDDSAMH | GIRWNSGSIGYADSVK | VGRGGAYFDY the result was 4.24, 4.10, nd (mean 4.17). For GFTYDDKAMH | GISWASGSIGYADSVK | VGRGGGYFDY, the assay gave 4.32, 4.55, 4.26 (mean 4.38). For GFTFDDNAMH | GISWNSGSIGYADSVK | VGRGGGEFDY, the assay gave 4.44, nd, nd.

The variant GFTFDDKAMH | GISWNSGSIGYADSVK | VARGGMYFDY showed 4.43, 4.40, 5.01 (mean 4.61). With GFTFDDHAMH | GISWNSGSIGYADSVK | VGRGGGTFDY the result was 5.03, nd, 4.56 (mean 4.80). For GFTFDDMAMH | GISWNRGSIGYADSVK | VGRCGGYFDY, the assay gave 5.57, nd, 4.42 (mean 4.99). The variant GFTFDDFAMH | GISWNSGSIGYADSEK | VGRGGGYFHY gave nd, 5.02, nd. The variant GFTFDGPAMS | GISWNSGSIGYADSVK | VGRGGGYFDY showed 4.30, 6.26, 4.60 (mean 5.05). For GFTFDDKAMH | GISWNSGPIGYADSVK | VGRGGGYFDY, the assay gave 5.84, 5.87, 5.14 (mean 5.62). The variant GFTFDDEAMH | GISLNSGSIGYADSVK | VIRGGGYFDY showed 5.51, 4.95, 6.65 (mean 5.70). The variant FFTFDDMAMH | GISWNSGSIGYADSVK | VGRGGGYFDI showed 5.74, 6.71, 5.15 (mean 5.87). The variant GFTFDDNAMH | GISWNSGSIPYHDSVK | VGRGGGYFDY showed nd, nd, nd.

For GFTFDDNAMH | GISWNWGSIIYADSVK | VGRGGGYFDY, the assay gave nd, nd, nd. The variant GFTFDDHAMH | GRSWNSGSIGYADCVK | VGRGGGYFDY gave nd, nd, nd. With GFTFDDKAMH | GISWNSGSIGGADSTK | VGRGGGYFDY the result was nd, nd, nd. For GFTSDDNAMH | GISWNSGSIGYADSVK | GGRGGGYFDY, the assay gave nd, nd, nd. The variant GFTFDDEAAH | GISWNSGSIGYADSVT | VGRGGGYFDY gave nd, nd, nd. The variant GFTTDDEAMG | GISWNSGSIGYADSVK | VGRGGGYFDY gave nd, nd, nd. The variant IFTFDDAAMH | GISWNSGSIGYADSVK | VGRMGGYFDY showed nd, nd, nd. For GFTFDDSAMH | GISWNSGSIGYADSVK | EGRGGGYFMY, the assay gave nd, nd, nd. With GMTFDDFAMH | GISWNSGSIGYADSVL | VGRGGGYFDY the result was nd, nd, nd.

For GFTFDDVAMH | GISWNSGSIGYAQSVK | VRRGGGYFDY, the assay gave nd, nd, nd. The variant GFTFDDWAMV | GISWNSDSIGYADSVK | VGRGGGYFDY showed nd, nd, nd. The variant GFTFDDWAMH | GISWNSGSIGYADSVK | VGRGGWYFDV showed nd, nd, nd. The variant GFTFDDVAMH | GILWNSGSIGYAFSVK | VGRGGGYFDY gave nd, nd, nd. The variant GFTFDDNAMG | GISWNSSSIGYADSVK | VGRGGGYFDY gave nd, nd, nd. For GFTFDGGYMH | GISWNSGSIGYADSVK | VGRGGGYFDY, the assay gave nd, nd, nd. The variant GFTFDDDAMH | GISWNSGSIGYADSVK | VGAGGGSFDY showed nd, nd, nd.

Picked from the list: the 4 lowest averages where every replicate gave a value.

{"CDR-H1": "GFTFDDGAMH", "CDR-H2": "GISWNSGSSGYADSVV", "CDR-H3": "VGRGGGYFDY", "replicates, log10 nM": "2.20, 2.61, 2.06", "mean log10 Kd (nM)": "2.29"}
{"CDR-H1": "GFVFDDNAMH", "CDR-H2": "GISWNSGSIGYADSVQ", "CDR-H3": "VGRGGGYFDY", "replicates, log10 nM": "2.68, 2.63, 2.36", "mean log10 Kd (nM)": "2.56"}
{"CDR-H1": "GQTFDDAAMH", "CDR-H2": "GISWNSGSIGYADSVK", "CDR-H3": "VGRGGGYFDM", "replicates, log10 nM": "2.98, 2.91, 3.10", "mean log10 Kd (nM)": "2.99"}
{"CDR-H1": "GFTYDDKAMH", "CDR-H2": "GISWASGSIGYADSVK", "CDR-H3": "VGRGGGYFDY", "replicates, log10 nM": "4.32, 4.55, 4.26", "mean log10 Kd (nM)": "4.38"}